Values joined by “and” are separate entries in the source; they are usually repeats but may differ in a detail not shown here. Equal values may be shown once.

As a reminder, the hepatocyte CLint is the rate of metabolic loss divided by the concentration. A low value points to greater metabolic stability. Broadly, the logD is the decadic logarithm of the distribution of all forms, ionised or not, between an organic phase and buffer at a given pH. A high value points to higher lipophilicity. As a reminder, the efflux ratio is the permeability from basolateral to apical divided by that in the opposite direction, in the common usage.

Series [1] can be described thus: Incubations in human liver S9 + NADPH (same donor pool as HLM). It is filed as in vitro ADME. The settings on record: S9 + NADPH + 5 uM GEF (Fig. 6b).
The next series can be described thus: in vitro. The conditions noted are these: both, human, hepatocytes.
In another series the test system is MDR1 (P-gp). Description: Efflux ratio in NIH MDCKI-MDR1 cells. The conditions noted are these: dog, pH 7.4, Efflux ratio, individual wells.
Another series concerns NIH MDCKI-MDR1 cell line. As to the kind of experiment: Efflux ratio in NIH MDCKI-MDR1 cells. The conditions noted are these: 0.1 µM, individual wells.
In series [2] the test system is MDCKII-MDR1-BCRP cell line. Description: Efflux ratio in MDCKII-MDR1-BCRP cells. The settings on record: 0.1 µM, individual wells.
The next series concerns MDR1 (P-gp), BCRP. Description: Efflux ratio in MDCKII-MDR1-BCRP cells. The settings on record: dog, pH 7.4, Efflux ratio, individual wells.
Series [3] is described as follows: CLint in NADPH-supplemented human liver microsomes.
Series [4] in a line: Free fraction in HLM incubation, equilibrium dialysis. The settings on record: fraction unbound, measured or estimated by in silico models of Fuinc. It is filed as in vitro ADME, human.
Another series has as its system rat hepatocytes. As to the kind of experiment: Free fraction in rat hepatocytes as surrogate for HH, equilibrium dialysis. The conditions noted are these: fraction unbound, measured or estimated by in silico models of Fuinc.

As for `Cc1ncc2n1-c1ccc(Cl)cc1C(c1ccccc1F)=NC2` [Midazolam], the “Percentage of midazolam alone” value in series [1] was 194.56% and 222.982% and 196.935%. The hepatocyte CLint in the series “in vitro” (HH_CLint) was 19.5 µL/min/1e6 cells; in “in vitro” (Midazolam CLint), 22.3 µL/min/1e6 cells. Moreover, the log distribution coefficient (logD) in the series “physchem” worked out at 3.4. Moreover, the efflux ratio at 2 h, 0.1 µM with MDR1 (P-gp) came to 1.24; in the series with MDR1 (P-gp), BCRP, 0.5. The Efflux ratio with NIH MDCKI-MDR1 cell line was 1.26; in [2] it was 0.52. For the same molecule, the “HLM scaled CLint,u relative to HH” value in series [3] (NADPH as cofactor (Fig. 3A)) is “over 5 fold”. In addition, the “HLM/HH (ratio of scaled CLint,u)” value in series [3] (NADPH-HLM average over HH average, Fig. 1) worked out at 12.6626.

On to `COc1ccccc1OCCNCC(O)COc1cccc2[nH]c3ccccc3c12` (stereo not drawn) [Carvedilol], for which the fu_HLM in [4] is recorded as 0.117. Further, the fu_ratHH in the series on rat hepatocytes is given as 0.161.

The record behind these values is publication PMC12592420, “A mismatch in enzyme-redox partnerships underlies divergent cytochrome P450 activities between human hepatocytes and microsomes” (Communications Biology, 2025).
